The pIC50 is the IC50 on a negative log10 scale, so that one unit is a factor of ten.

The chains behind the UniProt entries cited, without tags or fusion partners.
UniProt Q01827, whole entry: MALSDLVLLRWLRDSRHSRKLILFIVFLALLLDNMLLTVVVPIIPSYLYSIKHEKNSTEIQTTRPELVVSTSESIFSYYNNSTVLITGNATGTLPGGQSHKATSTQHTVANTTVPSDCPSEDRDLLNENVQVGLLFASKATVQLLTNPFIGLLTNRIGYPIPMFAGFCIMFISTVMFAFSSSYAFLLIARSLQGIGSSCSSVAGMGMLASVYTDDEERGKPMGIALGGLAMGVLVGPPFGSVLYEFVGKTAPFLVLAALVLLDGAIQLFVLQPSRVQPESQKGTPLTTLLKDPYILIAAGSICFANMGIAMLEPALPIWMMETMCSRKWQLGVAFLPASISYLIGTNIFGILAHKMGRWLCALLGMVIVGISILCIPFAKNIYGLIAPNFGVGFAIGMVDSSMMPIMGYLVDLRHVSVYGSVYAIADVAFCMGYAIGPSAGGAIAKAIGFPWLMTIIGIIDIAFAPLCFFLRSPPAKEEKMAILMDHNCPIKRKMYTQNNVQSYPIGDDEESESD

Assay [1] concerns the target T1, Synaptic vesicular amine transporter (Rattus norvegicus, UniProt Q01827). Description: Inhibition of [3H]DTBZ binding to VMAT2 in rat brain incubated for 30 mins by liquid scintillation spectrometry analysis. Type of assay: tissue-based.
Assay [2] has as its target T1, Synaptic vesicular amine transporter. Description: Inhibition of [3H]DA uptake at VMAT2 in rat striatal synaptosome incubated for 10 mins followed by [3H]DA addition and measured after 20 mins by TopCount scintillation counting method. The assay is classed as subcellular, Striatum.

pIC50: −log10 of the molar value.

Consider `COc1cc2c(cc1OC)C1CC(=O)C(CC(C)C)CN1CC2` (configuration not stated) [TETRABENAZINE], for which the negative logarithm of the IC50 (pIC50) was 7.15 in assay [1] and 7.96 in assay [2].
